Yeast mating assay 1: variants of the scFv Ab-14

Source: Engelhart et al. 2022 (doi:10.1038/s41597-022-01779-4), MIT Lincoln Laboratory and A-Alpha Bio; data file from the FLAb repository.

Antigen: PDVDLGDISGINAS, a 14-residue peptide of the SARS-CoV-2 spike HR2 region.

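The parent was found by panning a naive human phage display library on the peptide. Variants in AAYL50 differ from the parent at up to three CDR positions; double and triple changes were sampled at random. The assay is AlphaSeq: two haploid yeast populations carry antibody and antigen on their surface. After mating in shaken culture at 30 °C for 16 h, diploids were selected and their barcode pairs sequenced. A regression on co-assayed BCL2-family reference pairs converts the normalised counts of each replicate to an apparent Kd. The assay was run in three technical replicates.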

Ab-14 is the parent antibody, in scFv form: VH, then a (GGGGS)3 linker, then VL. The heavy chain is unchanged in all variants.
VH: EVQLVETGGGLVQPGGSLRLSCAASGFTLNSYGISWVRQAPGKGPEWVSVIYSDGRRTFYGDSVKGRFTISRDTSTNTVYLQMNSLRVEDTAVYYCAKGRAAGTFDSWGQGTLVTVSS
VL: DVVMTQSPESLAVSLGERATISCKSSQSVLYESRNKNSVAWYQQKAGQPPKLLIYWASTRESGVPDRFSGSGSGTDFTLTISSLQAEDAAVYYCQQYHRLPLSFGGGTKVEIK

Positions count from residue 1 of the parent VL; Q27Y puts Y in place of Q. All variants listed here change Q27 of the VL, counted from its first residue. Values are log10 of the apparent Kd in nM; lower means stronger binding. A mean of the replicates is given; it leaves out those without a signal. "not detected" marks a missing value. The strain was present, yet no cells mated with the target were sequenced in any replicate, which points to weak or no binding. In this assay the parent's reference entry averaged 0.65; its copy inside this library read 1.68. Three control strains display no target. For library AAYL50, 18% of the pairings with them gave a signal, with a median of 4.19 and one signal in twenty below 2.99, so weak values seen in few replicates may be background.

changes	log10 Kd (nM), mean	detected
Q27Y/S38E/S103E	2.27	1/3
Q27R/A57F/T59I	not detected	0/3
Q27R/S62T	1.71	3/3
Q27I/N35G/W56D	-0.14	3/3
Q27C/L30S/V39E	not detected	0/3
S26V/Q27G/S38F	3.35	2/3
Q27N/V29T/S103Q	1.86	3/3
Q27H/H98I/L100Q	1.70	3/3
Q27R/S28V/V39H	not detected	0/3
Q27Y/T59Q/Q95E	1.66	3/3
Q27F/N37M/H98I	1.59	3/3
Q27M/L30D/N37L	3.36	3/3
Q27F/Q96T/P101Q	not detected	0/3
Q27H/A40G/Q95K	5.19	1/3
Q27S	1.15	3/3
Q27A/N37I/W56H	0.76	3/3
Q27S/R34M/N35Q	0.71	3/3
Q27S/V39T/R60F	5.81	1/3
Q27C/R60M/L100A	not detected	0/3
K24Y/Q27K/R99T	1.60	3/3
Q27F/E32L/Y97I	2.10	3/3
K24M/Q27Y/S38V	4.35	1/3
Q27M/S28I	3.18	3/3
Q27E/S62E/Q96D	0.76	3/3
Q27L/S58E/L102K	1.64	3/3
Q27D/L100I	not detected	0/3
Q27W/L30A/S103K	1.21	3/3
Q27V/S33M/H98E	1.41	3/3
Q27G/L30G/A57E	1.59	3/3
Q27L/R34E/S62H	0.18	3/3
Q27F/S58W/H98E	1.32	1/3
K24A/Q27W/W56Q	1.28	3/3
Q27G/S33Y/L102N	3.94	1/3
Q27P/N35I/Q96G	0.76	3/3
Q27H/H98M/S103Y	0.55	3/3
Q27A/A57N	5.84	1/3
S26D/Q27V/L100R	3.32	1/3
Q27S/V39F/L100V	3.91	1/3
Q27V/E32F/N37S	3.82	3/3
Q27K/E61R/L100E	not detected	0/3
Q27L/L30P/Y97A	2.07	3/3
Q27G/N35P/E61L	1.78	3/3
Q27K/Y97S/L102H	not detected	0/3
Q27W/P101T	not detected	0/3
Q27E/S33G/V39W	4.72	1/3
Q27K/V39G/S62A	5.06	1/3
S25F/Q27R/S38V	3.98	1/3
Q27R/N37G/R60P	2.36	1/3
Q27C/L100Q	not detected	0/3
Q27T/V29L/W56F	not detected	0/3
Q27F/N37S/A57L	5.28	3/3
Q27V/Y31V/N37V	2.93	3/3
Q27K/R34K/E61C	0.92	3/3
Q27K/S62Y	1.08	3/3
Q27N/N35G/L100K	0.39	3/3
Q27D/N37A/S58C	3.17	3/3
Q27H/S62M/R99T	0.96	3/3

Extract of 6 entries:

changes	log10 Kd (nM), mean	detected
Q27K/S62Y	1.08	3/3
Q27S/R34M/N35Q	0.71	3/3
Q27Y/T59Q/Q95E	1.66	3/3
Q27F/N37M/H98I	1.59	3/3
Q27K/E61R/L100E	not detected	0/3
Q27F/Q96T/P101Q	not detected	0/3